Source: patent publication USRE33024E, “Bronchodilating 8-hydroxy-5-(1R)-1-hydroxy-2-(N-((1R)-2-(p-methoxyphenyl)-1-methylethyl) -amino)ethyl) carbostyril and intermediates thereof” (Tanabe Seiyaku Co. Ltd., priority 1983, dated 1989)

Columns and labels:
[1] = system: isolated tracheal muscle preparations of Male Hartley guinea pigs; assay: Bronchodilating activity: relaxation of histamine-induced contraction of isolated tracheal muscle preparations (Magnus' method); parameters: species or system guinea pig (Male Hartley); conditions: for Potency ratio (to Isoproterenol): from molar concentration giving 50% relaxation of histamine-induced tracheal contraction, histamine 2HCl 1×10^-5 g/ml, Tyrode's solution 37° C.
Procedure: Isolated tracheal muscle preparations of Male Hartley guinea pigs (body weight: 430-645 g) were used to estimate the bronchodilating activity of a test compound according to Magnus' method. The preparation was suspended in an organ bath filled with 20 ml of Tyrode's solution (37° C.), and said solution was continuously bubbled with air. Histamine 2HCl was added to the bath (final concentration; 1×10^-5 g/ml) and the test compound was added thereto about 15 minutes after the addition of histamine 2HCl. Tension changes in the tracheal smooth muscle were recorded isometrically with a force-displacement transducer. Molar conentration of the test compound which produced 50% relaxation of the histamine-induced tracheal contraction were estimated from the concentration-response curve, and the potency ratio of the test compound to Isoproterenol was calculated therefrom.

in vivo = conditions: mouse, iv
Procedure: A test compound was dissolved in 5% glucose solution, and the test compound solution (0.2 ml/10 g of body weight) was administered intravenously to Male ddY strain mice (body weight: 25-28 g). The LD50 of the test compound was estimated by the Up and Down method.

[2] = system: β2-adrenoceptor / β1-adrenoceptor; conditions: β1: positive chronotropic action (e.g., increase in heart rate)

SMILES	Potency ratio (to Isoproterenol) [1]	selectivity ratio (in vivo)	β2-adrenoceptor stimulating action (in words) (β2-adrenoceptor)	bronchodilating activity (in words) [1]	potency ratio of the β2-adrenoceptor stimulating action to the β1-adrenoceptor stimulating action (in words) [2]
COc1ccc(C[C@@H](C)NC[C@H](O)c2ccc(O)c3[nH]c(=O)ccc23)cc1.Cl [Comp. No. 1, 8-hydroxy-5-{(1R)-1-hydroxy-2-[N-((1R)-2-(p-methoxyphenyl)-1-methylethyl)amino]ethyl}carbostyril hydrochloride]	166	940000			
COc1ccc(CC(C)NCC(O)c2ccc(O)c3[nH]c(=O)ccc23)cc1 (centres unmarked) [Comp. No. 3, 8Hydroxy-5-{1hydroxy-2-[N--(2op-methoxy-phenyl)-1-methylethyliamino]ethylcarbostyril hydrochloride]	52				
COc1ccc(C[C@@H](C)NC[C@H](O)c2ccc(O)c3[nH]c(=O)ccc23)cc1 (relative stereo) [Comp. No. 2, 8-hydroxy-5-{1-hydroxy-2-[N-(2-(p-methoxyphenyl)-1-methylethyl)amino]ethyl}carbotyril (α-isomer) hydrochloride]	78	510000			
COc1ccc(CC(C)NCC(O)c2ccc(O)c3[nH]c(=O)ccc23)cc1 (centres unmarked) [compound (I)]			potent	potent	high

Structures can show the parent of a compound that is named as a salt.
